The values that follow come from publication PMC3154154.

Chains of the proteins cited; added tags and fusions are not shown. Chains listed by the source or under a name are the forms on record and can include a tag or linker. Residues count along the entry.
UniProt P08637, 17-208: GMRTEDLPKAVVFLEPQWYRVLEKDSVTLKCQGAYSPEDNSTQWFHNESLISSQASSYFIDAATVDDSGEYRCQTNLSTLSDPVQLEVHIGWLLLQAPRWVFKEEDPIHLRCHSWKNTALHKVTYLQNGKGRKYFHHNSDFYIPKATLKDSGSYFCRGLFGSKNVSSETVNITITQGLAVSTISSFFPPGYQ
L19 IgG control antibody (unmodified, without linker) (human), light, as listed by the source, chain 2 of 2: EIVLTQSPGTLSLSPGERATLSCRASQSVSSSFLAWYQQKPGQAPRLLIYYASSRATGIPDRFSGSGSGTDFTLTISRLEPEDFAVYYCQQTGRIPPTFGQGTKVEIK
L19 IgG control antibody (unmodified, without linker) (human), heavy, as listed by the source, chain 1 of 2: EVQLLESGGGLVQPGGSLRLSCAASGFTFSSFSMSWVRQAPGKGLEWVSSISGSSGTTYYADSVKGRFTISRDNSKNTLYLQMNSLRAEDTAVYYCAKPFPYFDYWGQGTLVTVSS

For the test, the target named is L19 IgG control antibody (unmodified, without linker) (human). Description: SPR; Biacore T100; L19 IgG or modified versions immobilised on a CM5 chip treated with antibody capture kit; soluble Fc receptor fragments as analytes at 1.56 - 50 nM; association and dissociation kinetics used to calculate the dissociation constant.

By Kd is commonly meant the free concentration of one partner at which half of the binding sites on the other are occupied at equilibrium, for simple one-to-one binding.

Take “Fcγ RIIIA/CD16a, soluble Fc receptor fragment (from UniProt P08637 17-208)”: the Kd was 0.089 µM.
